Measurements reported in ChEMBL document CHEMBL1147581, “Development of novel lipid-peptide hybrid compounds with antibacterial activity from natural cationic antibacterial peptides” (Bioorg Med Chem Lett, 2004).
Converted amounts (≈) assume the structure as drawn.

Assays:
Format in all cases: functional
[1] = test system: Escherichia coli; test: Minimum inhibitory concentration against Escherichia coli ATCC 25922
[2] = test system: Pseudomonas aeruginosa; test: Minimum inhibitory concentration against Pseudomonas aeruginosa ATCC 9027
[3] = test system: Staphylococcus aureus; test: Minimum inhibitory concentration against Staphylococcus aureus ATCC 6538

CC[C@H](C)[C@H](NC(=O)CN)C(=O)NCC(=O)N[C@@H](C)C(=O)N[C@H](C(=O)N[C@@H](CC(C)C)C(=O)N[C@@H](CCCCN)C(=O)N[C@H](C(=O)N[C@@H](CC(C)C)C(=O)N[C@H](C(=O)N[C@H](C(=O)NCC(=O)N[C@@H](CC(C)C)C(=O)N1CCC[C@H]1C(=O)N[C@@H](C)C(=O)N[C@@H](CC(C)C)C(=O)N[C@H](C(=O)N[C@@H](CO)C(=O)N[C@@H](Cc1c[nH]c2ccccc12)C(=O)N[C@H](C(=O)N[C@@H](CCCCN)C(=O)N[C@@H](CCCNC(=N)N)C(=O)N[C@@H](CCCCN)C(=O)N[C@@H](CCCNC(=N)N)C(=O)N[C@@H](CCC(N)=O)C(=O)N[C@@H](CCC(N)=O)C(N)=O)[C@@H](C)CC)[C@@H](C)CC)[C@@H](C)O)[C@@H](C)O)C(C)C)C(C)C [MELITTIN]
MIC [1]: 3.12 mg/L (≈ 1.1 µM)
MIC [2]: 1.56 mg/L (≈ 0.548 µM)
MIC [3]: 3.12 mg/L (≈ 1.1 µM)
